Measured values from US12226409B2, “Treatment of hepatocellular carcinoma” (Eisai R&D Management Co., Ltd., priority 2017, dated 2025).

Tested on: unresectable hepatocellular carcinoma (HCC)
Assay: REFLECT study, efficacy per independent review
Assay type: in vivo, human
Conditions: mRECIST
Procedure: The efficacy of LENVIMA was evaluated in a randomized, open-label, multicenter, international study (REFLECT; […]) conducted in patients with previously untreated unresectable hepatocellular carcinoma (HCC).

`CNC(=O)c1cc(Oc2ccc(NC(=O)Nc3ccc(Cl)c(C(F)(F)F)c3)cc2)ccn1` [Sorafenib] gave an Objective response rate of 12%.
